Biological target: T1, huCTLA4 (Homo sapiens, UniProt P16410)
T1 construct: huCTLA4 and huPD-L1, full-length mammalian surface expression constructs were generated; expressed in transfected cells; host or cells: CHO cells, lentiviral transduction, sorted to >98% purity
Experiment: Flow binding to CHO cells stably expressing CTLA4
Conditions: flow binding; read-out: CHO/CTLA4 EC50
Description: Binding of selected immunomodulatory fusion proteins to cognate binding partners was assessed. […] Cells were sorted in a Bio-Rad S3 Cell Sorter (Bio-Rad Corp., USA) to >98% purity. Jurkat/IL2 reporter cells, which endogenously express CD28, were used to detect binding to CD28.
For staining and analysis by flow cytometry, 100,000 cells of appropriate transfected cells were plated in 96-well round bottom plates. Cells were spun down and resuspended in staining buffer (phosphate buffered saline (PBS), 1% bovine serum albumin (BSA), and 0.1% sodium azide) for 20 minutes to block non-specific binding. […] Primary staining was performed on ice for 45 minutes, before washing cells in staining buffer twice. Phycoerythrin (PE)-conjugated anti-human Fc (Jackson ImmunoResearch, USA) was diluted 1:150, added to cells and incubated another 30 minutes on ice. Cells were then washed twice with 150 μL/well stain buffer, fixed in 2% formaldehyde/PBS, and analyzed on Intellicyt flow cytometer (Intellicyt Corp., USA). PE Mean Fluorescence Intensity (MFI) was calculated for each cell type with FlowJo Version 10 software (FlowJo LLC, USA).
Binding assays were carried out to assess the specificity and affinity of multivalent proteins to cell-expressed CTLA-4, CD28, and PD-L1 counter structures.
The EC50 for binding also was determined.

## CD80 (E88D/K89R/D90K/A91G/F92Y/K93R) ECD-Fc: variant full CD80 ECD fused to effector human IgG1 Fc (SEQ ID NO:1527)
  EC50: 3.6 nM

— patent US20220177587A1, “METHODS AND USES OF VARIANT CD80 FUSION PROTEINS AND RELATED CONSTRUCTS” (Alpine Immune Sciences, Inc., priority 2018, published 2022)
